{"source": "patent US20160143995A1", "about": "“Method of Treating Intracellular Infection” (priority 2013, published 2016)", "key": {"[1]": {"tested_on": "HBV", "assay": "Treatment of HBV infected mice (serum HBV DNA)", "type": "in vivo, hepatitis B virus"}, "[2]": {"tested_on": "HIV-1JR-CSF"}}}
{"smiles": "CC[C@H](NC(=O)[C@H](C)NC)C(=O)N1C[C@@H](O)C[C@H]1Cc1c(-c2[nH]c3cc(F)ccc3c2C[C@@H]2C[C@H](O)CN2C(=O)[C@H](CC)NC(=O)[C@H](C)NC)[nH]c2cc(F)ccc12", "note": "[Birinapant, birinapant]", "values": [{"measurement": "earliest HBV clearance after the first treatment dose", "setting": "[1]; C57BL/6 mice, 30 mg/kg intraperitoneally weekly", "result": 10, "unit": "days"}, {"measurement": "efficacy of 3 doses versus 6 doses in promoting HBV clearance", "setting": "[1]; HBV infected mice", "result": "equivalent efficacy"}, {"measurement": "Antiviral Index (TC50/IC50)", "setting": "[2]", "result": 26.1}]}
